Source: patent US11084781B2, “Diarylureas as CB1 allosteric modulators” (Research Triangle Institute, priority 2017, dated 2021)

Protein sequences, listed by entry. Tags and fused reporters are not part of them.
UniProt P21554, whole entry: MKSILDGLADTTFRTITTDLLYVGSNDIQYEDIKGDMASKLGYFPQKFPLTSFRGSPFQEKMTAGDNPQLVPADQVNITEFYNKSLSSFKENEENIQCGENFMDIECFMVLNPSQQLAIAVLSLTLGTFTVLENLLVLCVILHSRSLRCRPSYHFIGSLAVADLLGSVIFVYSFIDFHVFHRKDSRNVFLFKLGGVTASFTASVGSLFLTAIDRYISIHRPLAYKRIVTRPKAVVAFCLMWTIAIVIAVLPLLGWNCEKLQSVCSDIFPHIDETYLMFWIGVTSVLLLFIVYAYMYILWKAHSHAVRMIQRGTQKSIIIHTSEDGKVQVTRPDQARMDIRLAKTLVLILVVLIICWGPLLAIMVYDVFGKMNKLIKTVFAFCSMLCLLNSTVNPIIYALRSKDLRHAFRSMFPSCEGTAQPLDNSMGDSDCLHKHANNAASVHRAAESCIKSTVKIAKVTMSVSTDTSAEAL

Biological target: T1, human CB1 receptor (Homo sapiens, UniProt P21554)
T1 construct: host or cells: CHO-RD-HGA16 cells (CHO cells overexpressing promiscuous Galpha16)
Assay: CB1 calcium mobilization assay (antagonist mode, against EC80 of CP55,940)
Assay type: cell-based
Details: Table 1; against EC80 (100 nM) of CP55,940; mean ± S.E.M.

SMILES | IC50 [nM]
Cc1ccnc(-c2cccc(NC(=O)Nc3ccc(Cl)cc3)c2)c1 [Compound 16, 3-(4-Chlorophenyl)-1-[3-(4-methylpyridin-2-yl)phenyl]urea] | 1310 ± 80
Cc1cccc(-c2cccc(NC(=O)Nc3ccc(Cl)cc3)c2)c1 [Compound 27, 3-(4-Chlorophenyl)-1-[3-(3-methylphenyl)phenyl]urea] | 74 ± 6
O=C(Nc1ccc(Cl)cc1)Nc1cccc(-c2ccc(C(=O)c3ccccc3)cc2)c1 [Compound 40, 3-(4-Chlorophenyl)-1-[3-(4-benzoylphenyl)phenyl]urea] | 1570 ± 60
O=C(Nc1ccc(Cl)cc1)Nc1cccc(-c2ccc3ccccc3c2)c1 [Compound 42, 3-(4-Chlorophenyl)-1-[3-(naphthalen-2-yl)phenyl]urea] | 132 ± 28
O=C(Nc1ccc(Cl)cc1)Nc1cccc(-c2ccc3ccccc3n2)c1 [Compound 43, 3-(4-Chlorophenyl)-1-[3-(quinolin-2-yl)phenyl]urea] | 334 ± 80
